US20030236202A1, “Natural products and derivatives thereof for protection against neurodegenerative diseases” (priority 2002, published 2003)

Experiment: Absorption of hydroxytyrosol and derivatives: hydroxytyrosol in plasma after oral administration (GC-MS)
Conditions: mice, amounts equivalent to 10 mg hydroxytyrosol
Description: Plasma from each blood sample was subsequently extracted with ethyl acetate, and subjected to analysis by gas chromatography in combination with mass spectrometry.

| Substance | hydroxytyrosol in plasma, 15 min. | Hydroxytyrosol in plasma, 60 min. |
| --- | --- | --- |
| 2-(3,4-Dihydroxyphenyl) ethyl acetate | 0.68 mg/L | 0.06 mg/L |
| 2-(3,4-Distearyloxyphenyl) ethyl stearate | not detected | 0.44 mg/L |
